Laboratory results as given in patent publication US20250353859A1, “COMPOUNDS AS CCR6 INHIBITORS” (Hoffmann-La Roche Inc., priority 2023, published 2025).

Sequences of proteins named here, by UniProt entry; tags and fusion partners are left off.
UniProt P51684, whole entry: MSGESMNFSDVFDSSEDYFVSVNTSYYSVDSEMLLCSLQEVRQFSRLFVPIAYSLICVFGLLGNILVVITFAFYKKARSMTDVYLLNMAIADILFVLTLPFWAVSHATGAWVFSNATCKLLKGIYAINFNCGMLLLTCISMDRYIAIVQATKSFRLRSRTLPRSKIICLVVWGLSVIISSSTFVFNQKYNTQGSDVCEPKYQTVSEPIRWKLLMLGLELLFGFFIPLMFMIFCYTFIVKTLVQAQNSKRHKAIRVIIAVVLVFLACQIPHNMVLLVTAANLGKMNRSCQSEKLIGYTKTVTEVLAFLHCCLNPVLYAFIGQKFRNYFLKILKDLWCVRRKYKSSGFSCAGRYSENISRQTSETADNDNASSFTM

Molecular target: human CCR6 (Homo sapiens, UniProt P51684)
Assay: Human CCR6-CRE reporter assay
Conditions: read-out: Activity in human CCR6-CRE reporter assay; scaffold variant X = O, R1 = CH3

pIC50: < 4.70
SMILES: COc1ccc(NC2CCN(S(=O)(=O)c3ccc(OC)cc3)CC2)cc1

pIC50: −log10 of the molar value.
